Binding of CDR-mutated scFvs to a peptide of the spike HR2 region

Target peptide (SARS-CoV-2 spike, HR2 region): PDVDLGDISGINAS

Parent scFv Ab-14: VH joined to VL by the linker GGGGSGGGGSGGGGS. Changes lie in the light chain CDRs alone.
VH: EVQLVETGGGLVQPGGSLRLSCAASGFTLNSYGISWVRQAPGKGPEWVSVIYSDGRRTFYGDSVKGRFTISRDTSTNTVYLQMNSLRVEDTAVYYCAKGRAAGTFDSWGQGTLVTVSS
VL: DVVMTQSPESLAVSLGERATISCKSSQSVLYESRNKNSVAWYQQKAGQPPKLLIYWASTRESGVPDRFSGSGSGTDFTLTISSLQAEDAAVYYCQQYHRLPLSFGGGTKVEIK

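Phage display of a naive human antibody library on the peptide gave the parent. In library AAYL50, one, two or three CDR residues were substituted; doubles and triples were drawn at random. The assay is AlphaSeq: two haploid yeast populations carry antibody and antigen on their surface. Pairs that bind mate more often; barcode pairs of the diploids are counted by sequencing. Read counts were normalised to the haploid input and turned into Kd by a linear fit to BCL2-family pairs of known affinity, for each replicate. There are three technical replicates.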

Each variant is given by its three light chain CDRs, as the data file delimits them; those of the parent are KSSQSVLYESRNKNSVA, WASTRES, QQYHRLPLS. The read-out is the apparent dissociation constant on a log10 scale (nM): the lower, the stronger. The mean shown is taken over the replicates in which the pair was detected. Where no diploid with the target was found in any replicate, the entry reads "no signal": below detection, most likely a poor binder, though not proof of it.

| mean, log10 nM | seen in | CDR-L1 | CDR-L2 | CDR-L3 |
|---|---|---|---|---|
| 2.64 | 3/3 | KSSQSVLYKSRNKNSVA | WANTRES | DQYHRLPLS |
| 4.19 | 1/3 | KSSQSVKYESRNKISVA | WASTRES | QQYHRLPQS |
| 4.69 | 1/3 | KSSQSVLYENRNKNSVE | WASTRES | QQMHRLPLS |
| 3.18 | 3/3 | KSSQSVLYESRNKNSVA | WNSTREG | QQYIRLPLS |
| no signal | 0/3 | ISSQSVLYHSRNKESVA | WASTRES | QQYHRLPLS |
| 2.11 | 3/3 | ISSGSVLYESRNFNSVA | WASTRES | QQYHRLPLS |
| no signal | 0/3 | KSSQRVLYESHNKNSVA | WASTSES | QQYHRLPLS |
| 2.00 | 3/3 | KSSQSILYESRNKFSVA | WASTRES | QQYHMLPLS |
| 2.43 | 3/3 | KSSQSVLYERPNKNSVA | WASTRES | QPYHRLPLS |
| 1.55 | 3/3 | KSSQSSLYESRGGNSVA | WASTRES | QQYHRLPLS |
| 3.29 | 2/3 | KSSQSVLYEGRNYNSVA | WASTRES | QQYHRLPWS |
| no signal | 0/3 | KSSQNVLYESRNKNSVA | WASTREK | VQYHRLPLS |
| -0.34 | 3/3 | KISQSVLYESRNKNSVA | WASTRNS | QQYHRLPLS |
| 0.16 | 3/3 | KSSQSQLNESRNKNSVA | WASTRES | QQYHRLPPS |
| 0.67 | 3/3 | KSSQSVPYESRNKNSVA | WASTRES | QQYHCPPLS |
| 4.51 | 1/3 | KSSQSVLYVSRNKNRVA | WASTRES | QQYGRLPLS |
| 0.08 | 3/3 | KSDQSVLYESRNKNSVA | WASTRES | NKYHRLPLS |
| 4.59 | 2/3 | KSSQSVLYPSRNKNSVY | WASTRES | QQYHALPLS |
| no signal | 0/3 | KSSQSVLYESRNKDSKA | WNSTRES | QQYHRLPLS |
| 4.95 | 3/3 | KSSQSVLYESRNKNSSA | DASTRWS | QQYHRLPLS |
| 1.30 | 3/3 | KQSQSVLYESNNKNSVA | WASTRES | MQYHRLPLS |
| no signal | 0/3 | KSSQSVLYVSINKNSVA | WASTRES | QKYHRLPLS |
| no signal | 0/3 | KSSQSFLYESRNKNSVA | WASTRES | IQYHRLPLS |
| 3.70 | 3/3 | KSSQDVLYESRNKNSVA | WASTHES | QQYWRLPLS |
| no signal | 0/3 | KSSQSVLYERRNKNSVA | WASTRES | QQYHTTPLS |
| 2.61 | 1/3 | KSSQSVLYESRNKNSVA | WAQTRSS | QQYHQLPLS |
| no signal | 0/3 | KSSQSVLYESYNKNSVA | WASTRES | QQYHEDPLS |
| 2.63 | 3/3 | KSSQSVWLESRNKNYVA | WASTRES | QQYHRLPLS |
| 3.61 | 3/3 | KSSQYVLYESRNKNSVA | WASARQS | QQYHRLPLS |
| 1.11 | 3/3 | KSSQSVLYESNYKNSVA | WASTRRS | QQYHRLPLS |
| 4.04 | 1/3 | KSNQSVLYESRNINSVA | WASTRES | QQQHRLPLS |
| 1.45 | 3/3 | KSSQSVLYESRNKWSVA | WASTRES | EQYHRLPES |
| 5.12 | 1/3 | KSSQSVLYESRNKRSVA | KASTRES | QQLHRLPLS |
| no signal | 0/3 | KSSQSVLYESRNKNSVN | VASTRES | QQYHRLLLS |
| no signal | 0/3 | KSSQSVLYESRNKHSVA | WASTRES | IQYHRKPLS |
| 3.32 | 1/3 | KSSQSVLYESRNKNSVA | WMSTRIS | QQYHNLPLS |
| 2.21 | 1/3 | KSYQSVLYESRNKNSVA | WASKREV | QQYHRLPLS |
| 3.26 | 1/3 | KSSQSVLCESRNKNSVA | WASTEES | QQYHRRPLS |
| 2.53 | 3/3 | KSSQYVLYESRNKQSVA | WASKRES | QQYHRLPLS |
| 5.40 | 3/3 | KSSQSVLYESRNKNSVA | WASTREK | QQYDRGPLS |
| no signal | 0/3 | KSSQSVLYHSRNKNSVA | WAKTRGS | QQYHRLPLS |
| no signal | 0/3 | KSSYSVLYESVNKNSEA | WASTRES | QQYHRLPLS |
| 1.85 | 3/3 | KSSQSVGYESRNKNSLA | WASTRER | QQYHRLPLS |
| 4.86 | 1/3 | KSSQQVLYESRNKNSVA | WAETRES | QQYHRGPLS |
| 4.47 | 1/3 | KSYQSVLYESRNKNSPA | WRSTRES | QQYHRLPLS |
| 3.13 | 3/3 | GSSQSVRYVSRNKNSVA | WASTRES | QQYHRLPLS |
| 4.50 | 1/3 | ESSQSVLYESRIKNSVA | WLSTRES | QQYHRLPLS |
| 0.84 | 3/3 | ASSQSVSYESRNKNSVA | WASTREP | QQYHRLPLS |
| 2.07 | 1/3 | KSSQSVLYEYRNKNSVA | WASTRES | AQYHRLPLS |
| 5.18 | 1/3 | KSSQSVLYESDAKNSVA | WASTRES | QQYHRLPLL |
| no signal | 0/3 | KSSQSVLYPSRNKNSVA | WASTRES | QQYHNLPSS |
| 1.07 | 3/3 | KSSQSVLYESYNKNSVA | WASTRFS | QQYHRLPLS |
| 1.62 | 3/3 | KSSQSVEYESREKNSVA | WASTRES | QQYHRLPVS |
| 2.11 | 3/3 | KSEQSVLYESRNCNSVA | WASTRES | QPYHRLPLS |
| 4.60 | 2/3 | KSSQSYLYRSRNKNSVA | WASTTES | QQYHRLPLS |
| no signal | 0/3 | KSAQSVLYISRNKNSVA | WASTRES | CQYHRLPLS |
| 0.03 | 3/3 | KSSDSVLYESRNKNIVA | KASTRES | QQYHRLPLS |
| 0.21 | 3/3 | KMSQSVLYESRTKNSVA | WASTRES | QQYHRLPLS |
| no signal | 0/3 | KESQSVLYESRNKNSEA | WASERES | QQYHRLPLS |
| 0.78 | 3/3 | KTSQSVLWESRNKNSVA | WASTRES | QSYHRLPLS |
| 1.67 | 3/3 | KVSWSVLYESRNKNSVA | WASTRES | QQYHRLPMS |
| no signal | 0/3 | KSSQTVLYESRNKNSVA | WASTRES | MQYHRLLLS |
| 0.78 | 3/3 | KSSQSWLLESRNKNSVA | WADTRES | QQYHRLPLS |
| 1.64 | 3/3 | KYSQSPLYESRNKNSVA | WASTRES | QQYHRLPWS |
| 2.40 | 3/3 | KSSQSPLYESRNKNSVA | WASTRES | QQVHPLPLS |
| 1.57 | 3/3 | KSSESVLYESRNKNAVA | WASTRES | QQCHRLPLS |
| no signal | 0/3 | KSSQSVLYESRNKNSVA | WHSTRKS | QQYHRLPDS |
| 1.73 | 3/3 | MSSQSVLYESRNVNSVA | WASCRES | QQYHRLPLS |
| 3.79 | 1/3 | KSSQSVLYEVRNKNSVA | WASTRES | QQYHRLPLD |
| 1.73 | 3/3 | KSSQMVHYESRDKNSVA | WASTRES | QQYHRLPLS |
| no signal | 0/3 | KSSTSVLYESRNKNSVA | WASTRES | QQYHRMGLS |
| no signal | 0/3 | KSSQSVLYESRIKNSVA | WAYTRES | QQYHNLPLS |

Nonspecific signal, from three strains lacking the peptide, appeared in 18% of pairings of library AAYL50, centred on 4.19 (5% of these signals below 2.99); values are not corrected for it. In this assay the parent's reference entry averaged 0.65; its copy inside this library read 1.68.

From the AlphaSeq antibody data of Engelhart et al. 2022 (doi:10.1038/s41597-022-01779-4), copy in the FLAb collection.